1 molecule from ChEMBL document CHEMBL1136688, “Synthesis and SAR of aminoalkoxy-biaryl-4-carboxamides: novel and selective histamine H3 receptor antagonists” (Bioorg Med Chem Lett, 2003) can be followed below.

Protein sequences, listed by entry. Tags and fused reporters are not part of them. Lines headed by an entry give the natural chain unless they say otherwise; changes in a name come on top.
UniProt Q9QYN8: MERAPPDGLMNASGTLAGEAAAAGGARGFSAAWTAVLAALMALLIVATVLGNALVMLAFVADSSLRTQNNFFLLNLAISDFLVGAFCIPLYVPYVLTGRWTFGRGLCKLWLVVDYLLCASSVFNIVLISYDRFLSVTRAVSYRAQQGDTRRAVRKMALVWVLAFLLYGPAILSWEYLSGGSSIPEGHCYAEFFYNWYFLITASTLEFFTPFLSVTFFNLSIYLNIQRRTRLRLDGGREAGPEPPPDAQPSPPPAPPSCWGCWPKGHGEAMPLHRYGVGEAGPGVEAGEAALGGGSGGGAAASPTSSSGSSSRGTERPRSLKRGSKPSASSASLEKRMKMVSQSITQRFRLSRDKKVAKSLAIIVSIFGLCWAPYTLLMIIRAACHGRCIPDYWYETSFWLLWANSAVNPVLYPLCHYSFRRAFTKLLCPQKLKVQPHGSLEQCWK

The experiment deals with Histamine H3 receptor (Rattus norvegicus, UniProt Q9QYN8). As to the kind of experiment: Binding affinity towards rat cortical H3 receptor.

The molecule `C[C@H]1CC[C@H](C)N1CCCOc1ccc(-c2ccc(C(=O)N3CCOCC3)cc2)cc1` [A-349,821] gave a Ki of 1.66 nM.

For orientation: Ki means a measure of affinity in units of concentration, obtained from inhibition or displacement.
